This assay relates to transgenic C. elegans (tgMOR) that express mammalian MOR. In words: Thrashing / locomotion of transgenic C. elegans expressing MOR (tgMOR). Type of assay: in vivo. Conditions: tgMOR animals, compared with fentanyl.

Consider `CN1CC[C@]23c4c5ccc(O)c4O[C@H]2[C@@H](O)C=C[C@H]3[C@H]1C5` [morphine], for which the “temporal profile of response” value is “faster response onset and more rapid recovery”.

These data come from patent US12303511B2 (priority 2018, dated 2025).
